One molecule from patent EP0660840B1 (priority 1992, dated 1994) can be followed below.

The chains behind the UniProt entries cited, without tags or fusion partners. Where a name states a change or a piece, a line headed by the entry shows the natural chain unless it says otherwise.
UniProt P07861: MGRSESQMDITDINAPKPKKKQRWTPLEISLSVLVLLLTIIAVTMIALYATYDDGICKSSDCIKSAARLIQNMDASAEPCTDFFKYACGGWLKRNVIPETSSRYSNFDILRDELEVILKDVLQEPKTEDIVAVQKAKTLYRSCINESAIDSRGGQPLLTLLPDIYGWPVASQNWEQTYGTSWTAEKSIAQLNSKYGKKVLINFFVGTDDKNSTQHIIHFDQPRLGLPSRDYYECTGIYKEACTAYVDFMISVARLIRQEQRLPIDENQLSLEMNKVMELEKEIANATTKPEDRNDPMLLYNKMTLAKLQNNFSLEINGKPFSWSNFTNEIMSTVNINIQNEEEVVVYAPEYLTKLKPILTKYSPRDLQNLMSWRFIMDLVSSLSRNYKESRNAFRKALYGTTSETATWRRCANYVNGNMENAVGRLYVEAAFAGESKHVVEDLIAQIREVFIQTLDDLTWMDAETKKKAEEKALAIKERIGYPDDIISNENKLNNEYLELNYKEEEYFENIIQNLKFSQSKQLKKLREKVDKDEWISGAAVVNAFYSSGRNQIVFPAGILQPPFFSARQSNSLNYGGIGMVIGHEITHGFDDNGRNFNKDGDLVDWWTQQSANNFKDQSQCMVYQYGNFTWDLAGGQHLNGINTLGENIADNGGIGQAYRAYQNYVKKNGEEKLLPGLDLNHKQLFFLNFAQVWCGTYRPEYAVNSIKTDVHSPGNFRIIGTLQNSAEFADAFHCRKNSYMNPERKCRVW

Each structure is given as a SMILES string.

The target in this experiment is neutral endopeptidase (NEP) 3.4.24.11 (Rattus norvegicus, UniProt P07861). The experiment is described as follows: biochemical.

As for `O=C(O)[C@H](Cc1ccc(-c2ccccc2)cc1)NCP(=O)(O)O` [Example 11, (S)-3-(biphenyl-4-yl)-2-(phosphonomethylamino)-propionic acid], the IC50 – broadly, the point on the concentration scale where inhibition reaches its midpoint – is around 15 nM.
